The numbers were not newly measured in patent US11229595B2, “Skin barrier preparation and method therefor” (Johnson & Johnson Consumer Inc., priority 2019, dated 2022), which cites them from elsewhere.

For this data set the following is noted: caffeine, topical delivery; Dias M et al. Int J Pharm 1999.

For `Cn1c(=O)c2c(ncn2C)n(C)c1=O` [caffeine], the permeability coefficient kp is 0.0322 ×10⁻⁶ cm/s.
